The results in this text go back to patent publication US8846698B2, “Pyrrolo[2,3-d]pyrimidine tropomysin-related kinase inhibitors” (Pfizer Limited, priority 2011, dated 2014).

By UniProt entry, the sequences of proteins in these tests, tags left out. Residues count along the entry.
UniProt P04629, 441-796: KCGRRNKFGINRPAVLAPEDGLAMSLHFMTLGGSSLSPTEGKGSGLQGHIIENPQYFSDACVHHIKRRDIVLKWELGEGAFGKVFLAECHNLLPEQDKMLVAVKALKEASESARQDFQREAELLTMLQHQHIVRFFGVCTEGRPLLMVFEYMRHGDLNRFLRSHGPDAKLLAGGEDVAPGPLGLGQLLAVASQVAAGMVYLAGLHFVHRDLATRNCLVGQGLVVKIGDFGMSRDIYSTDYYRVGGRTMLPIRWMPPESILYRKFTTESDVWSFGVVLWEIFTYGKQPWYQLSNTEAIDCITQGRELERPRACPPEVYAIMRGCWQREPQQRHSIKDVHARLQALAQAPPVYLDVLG

This experiment has as its target TRKA (Homo sapiens (Human), UniProt P04629). Briefly: Isolated TRK enzyme assay (HTRF KinEASE-TK), TRKA. Type of experiment: biochemical.

Molecules are shown by their SMILES.

On to `CC(C(N)=O)n1cc(C(=O)c2cncc(NC(=O)Cc3ccc(Cl)cc3)c2)c2cncnc21` (racemic) [Example 229, 2-{5-[(5-{[(4-Chlorophenyl)acetyl]amino}pyridin-3-yl)carbonyl]-7H-pyrrolo[2,3-d]pyrimidin-7-yl}propanamide], for which the 50% inhibitory concentration (IC50) was found to be 138 nM.

Consider `CC(C)n1cc(C(=O)c2cncc(NC(=O)Cc3ccc4cn[nH]c4c3)c2)c2cncnc21` [Example 99, 2-(1H-indazol-6-yl)-N-{5-[(7-isopropyl-7H-pyrrolo[2,3-d]pyrimidin-5-yl)carbonyl]pyridin-3-yl}acetamide], for which inhibition was half-maximal at 19.5 nM (IC50). This IC50 is about 7.1-fold lower than that of the compound before.
